# Values of other authors in US20240280594A1, “MULTIWELL PLATE LIPOPHILICITY ASSAY” (Hoffmann-La Roche Inc., priority 2021, published 2024).
# Conditions: shake flask, pH 7.4, average literature value; cited from earlier work
smiles,measurement,value
CCC(=O)N(c1ccccc1)C1CCN(CCc2ccccc2)CC1,Literature LogD,2.86

# Some compounds may have been tested in ways that are not shown here.
